Reference: ChEMBL document CHEMBL1132075, “Enantio- and diastereocontrolled dopamine D1, D2, D3 and D4 receptor binding of N-(3-pyrrolidinylmethyl)benzamides synthesized from aspartic acid” (Bioorg Med Chem Lett, 1999)

By UniProt entry, the sequences of proteins in these tests, tags left out.
UniProt P21917, whole entry: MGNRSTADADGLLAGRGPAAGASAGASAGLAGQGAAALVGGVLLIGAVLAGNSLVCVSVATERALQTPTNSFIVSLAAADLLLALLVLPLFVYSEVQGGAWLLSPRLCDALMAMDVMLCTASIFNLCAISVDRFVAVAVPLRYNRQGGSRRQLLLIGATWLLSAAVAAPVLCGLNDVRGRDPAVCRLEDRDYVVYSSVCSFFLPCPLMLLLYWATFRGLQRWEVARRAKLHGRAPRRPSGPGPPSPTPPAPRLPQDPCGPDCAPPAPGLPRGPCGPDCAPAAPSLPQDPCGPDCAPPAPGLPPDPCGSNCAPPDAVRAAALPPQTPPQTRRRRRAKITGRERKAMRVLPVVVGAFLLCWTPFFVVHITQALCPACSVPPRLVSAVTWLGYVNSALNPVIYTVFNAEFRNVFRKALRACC

Biological target: D(4) dopamine receptor (Homo sapiens, UniProt P21917)
Assay: Binding affinity towards human Dopamine receptor D4 by [3H]spiperone displacement.

How did the Ki turn out when `CCN1CCC[C@H]1CNC(=O)c1cc(S(N)(=O)=O)ccc1OC` [LEVOSULPIRIDE] was run?
The Ki was 2100 nM.
